Earlier results as cited in patent US20080070794A1, “Chemical sensors” (The Trustees of Princeton University, priority 2005, published 2008).

Protein sequences, listed by entry. Tags and fused reporters are not part of them.
UniProt P08908, whole entry, species assumed: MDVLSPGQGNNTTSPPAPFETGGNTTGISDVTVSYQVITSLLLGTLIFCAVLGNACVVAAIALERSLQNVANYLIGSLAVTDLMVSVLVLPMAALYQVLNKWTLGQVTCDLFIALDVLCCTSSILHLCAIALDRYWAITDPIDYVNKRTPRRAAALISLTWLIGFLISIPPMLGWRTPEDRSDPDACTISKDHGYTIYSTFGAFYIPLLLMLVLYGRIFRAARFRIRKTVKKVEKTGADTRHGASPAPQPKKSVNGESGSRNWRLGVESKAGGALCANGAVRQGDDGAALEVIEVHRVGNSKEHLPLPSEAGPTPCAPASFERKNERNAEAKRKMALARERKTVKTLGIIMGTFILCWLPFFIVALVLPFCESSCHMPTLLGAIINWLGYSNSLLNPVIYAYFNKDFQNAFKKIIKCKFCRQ
UniProt P21728, whole entry: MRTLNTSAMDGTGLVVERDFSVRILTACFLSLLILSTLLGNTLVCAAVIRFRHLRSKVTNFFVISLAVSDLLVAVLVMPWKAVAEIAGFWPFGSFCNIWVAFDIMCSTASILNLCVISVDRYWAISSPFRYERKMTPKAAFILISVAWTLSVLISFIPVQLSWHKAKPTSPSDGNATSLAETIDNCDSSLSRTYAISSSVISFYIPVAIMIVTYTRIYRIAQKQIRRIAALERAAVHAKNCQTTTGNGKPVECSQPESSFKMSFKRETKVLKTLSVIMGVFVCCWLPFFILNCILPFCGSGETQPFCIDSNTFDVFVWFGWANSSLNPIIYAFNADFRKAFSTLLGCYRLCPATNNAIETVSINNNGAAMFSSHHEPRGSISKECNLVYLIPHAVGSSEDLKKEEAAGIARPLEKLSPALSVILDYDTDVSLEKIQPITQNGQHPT
UniProt P28222, whole entry, species assumed: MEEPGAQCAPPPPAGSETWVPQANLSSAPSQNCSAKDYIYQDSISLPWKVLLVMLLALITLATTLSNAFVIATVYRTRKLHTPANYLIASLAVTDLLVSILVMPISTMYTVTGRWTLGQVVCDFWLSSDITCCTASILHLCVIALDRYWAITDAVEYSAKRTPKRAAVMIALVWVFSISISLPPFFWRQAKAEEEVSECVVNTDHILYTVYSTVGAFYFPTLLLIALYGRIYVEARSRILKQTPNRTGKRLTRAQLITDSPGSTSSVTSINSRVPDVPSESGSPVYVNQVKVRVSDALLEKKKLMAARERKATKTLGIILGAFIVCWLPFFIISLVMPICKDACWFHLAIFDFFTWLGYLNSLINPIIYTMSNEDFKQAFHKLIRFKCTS

Experiments:
Muscarinic = details: cited from earlier work
5HT-1a = 5HT-1a (Homo sapiens, UniProt P08908); details: read-out: Kd 5HT-1a; cited from earlier work
D1 = D1 (Homo sapiens, UniProt P21728); details: cited from earlier work
5HT-1b = 5HT-1b (Homo sapiens, UniProt P28222); details: read-out: Kd 5HT-1b; cited from earlier work

SMILES	Kd (Muscarinic) [µM]	Kd (5HT-1a) [µM]	Kd (D1) [µM]	Kd (5HT-1b) [µM]
Clc1cccc(Cl)c1N=C1NCCN1 [clonidine]	100			
CNC[C@H](O)c1ccc(O)c(O)c1 [epinephrine]		25	1.2	100
